Biological target: Urease subunit alpha/Urease subunit beta (Helicobacter pylori (strain ATCC 700392 / 26695) (Campylobacterpylori)) (UniProt P69996+P14916)
Assay: Inhibition of Helicobacter pylori ATCC 43504 urease assessed as ammonia production at 1 mM after 3 hrs by indophenol method
Procedure, shortened: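 Crude urease from H. pylori ATCC 43504 grown 24 h at 37 °C microaerobically in brucella broth with 10% heat-inactivated horse serum; cells PBS-washed, stored at -80 °C, sonicated 60 s in water with protease inhibitors, extract mixed 1:1 with glycerol. Enzyme (4 U) preincubated 3 h at room temperature with compound; ammonia measured by indophenol method; percent inhibition.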

By UniProt entry, the sequences of proteins in these tests, tags left out. Where a name states a change or a piece, a line headed by the entry shows the natural chain unless it says otherwise.
UniProt P69996: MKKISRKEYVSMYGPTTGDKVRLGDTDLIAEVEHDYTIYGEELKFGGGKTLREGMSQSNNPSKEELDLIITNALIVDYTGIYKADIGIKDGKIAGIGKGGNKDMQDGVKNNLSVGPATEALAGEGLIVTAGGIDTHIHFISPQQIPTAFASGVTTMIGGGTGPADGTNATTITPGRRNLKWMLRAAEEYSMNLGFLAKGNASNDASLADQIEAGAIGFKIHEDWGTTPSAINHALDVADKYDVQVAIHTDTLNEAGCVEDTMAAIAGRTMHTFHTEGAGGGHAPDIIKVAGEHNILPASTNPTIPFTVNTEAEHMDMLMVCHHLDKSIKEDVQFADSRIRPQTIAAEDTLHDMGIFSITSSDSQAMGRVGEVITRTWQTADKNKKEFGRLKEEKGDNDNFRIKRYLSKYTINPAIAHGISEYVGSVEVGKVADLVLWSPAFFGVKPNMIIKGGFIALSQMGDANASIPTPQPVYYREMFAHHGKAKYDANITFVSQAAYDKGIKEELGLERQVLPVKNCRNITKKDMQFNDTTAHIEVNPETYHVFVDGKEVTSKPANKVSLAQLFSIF
UniProt P14916: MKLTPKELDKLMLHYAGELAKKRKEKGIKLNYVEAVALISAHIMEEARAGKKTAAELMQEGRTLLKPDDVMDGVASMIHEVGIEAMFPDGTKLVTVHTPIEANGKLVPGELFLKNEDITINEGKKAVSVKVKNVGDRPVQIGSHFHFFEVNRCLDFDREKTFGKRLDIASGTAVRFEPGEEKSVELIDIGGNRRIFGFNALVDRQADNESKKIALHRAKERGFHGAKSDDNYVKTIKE

In the case of CC(=O)NO, the inhibition is reported as 91.2%.

Reference: ChEMBL document CHEMBL1152646, “Synthesis, molecular docking and biological evaluation of metronidazole derivatives as potent Helicobacter pylori urease inhibitors” (Bioorg Med Chem, 2009)
